Assay results: PubChem BioAssay AID488922 (Johns Hopkins Ion Channel Center, 2010)
The entries are a selection whose mix differs from that of the whole data set. Some of these compounds have results that are not shown, active ones among them. The source made the active and inactive calls.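 The calls were made as follows: active = ratio B-score over 3 SD below the library mean, with starting fluorescence within 5 SD of its mean; inactive = the rest, inconclusive results apart.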

By UniProt entry, the sequences of proteins in these tests, tags left out.
UniProt Q9NPC2, whole entry: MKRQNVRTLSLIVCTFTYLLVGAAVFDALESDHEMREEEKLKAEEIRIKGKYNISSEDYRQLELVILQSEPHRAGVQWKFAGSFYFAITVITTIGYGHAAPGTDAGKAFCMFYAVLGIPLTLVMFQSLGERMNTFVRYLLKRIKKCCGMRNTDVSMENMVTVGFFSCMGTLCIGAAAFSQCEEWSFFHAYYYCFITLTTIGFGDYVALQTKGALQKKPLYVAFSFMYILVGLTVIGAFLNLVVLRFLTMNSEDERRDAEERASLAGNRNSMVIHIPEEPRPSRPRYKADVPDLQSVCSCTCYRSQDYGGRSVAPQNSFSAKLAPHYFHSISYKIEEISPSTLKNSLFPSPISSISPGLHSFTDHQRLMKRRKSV

Biological target: Potassium channel subfamily K member 9 (Homo sapiens) (UniProt Q9NPC2)
Test: KCNK9 potassium channel inhibitors, primary screen, HEK293 cells, thallium flux (AID 488922)
Conditions: HEK293 KCNK9, FluxOR thallium flux fluorescence; at 10 µM

SMILES	outcome
COc1cc(C(=O)NCC2(N(C)C)CCCCC2)c([N+](=O)[O-])cc1OC	inactive
CN(C)C1(CNC(=O)c2ccc(Br)cc2)CCCCC1	inactive
O=C(NCC1(N2CCCCC2)CCCCC1)c1cccc(Cl)c1	inactive
COc1cccc(C(=O)NCC2(N3CCCCC3)CCCCC2)c1	inactive
COc1ccc(Cl)cc1C(=O)NCC1(N(C)C)CCCCC1	inactive
O=C(OC1CN2CCC1CC2)C(CO)(c1ccccc1)c1ccccc1 (centres undefined)	inactive
CC(C)Oc1ccc(C(=O)NCC2(N(C)C)CCCCC2)cc1	inactive
CN(C)c1cccc(C(=O)NCC2(N(C)C)CCCCC2)c1	inactive
COc1ccc(Br)c(C(=O)NCC2(N3CCCCC3)CCCCC2)c1	inactive
CN1[C@@H]2CC[C@H]1CC(OC(=O)C(O)(c1ccccc1)c1ccccc1)C2 (some centres undefined)	inactive
O=C(NCC1(N2CCCCC2)CCCCC1)c1cc([N+](=O)[O-])ccc1Cl	inactive
Cc1ccc(C(=O)NCC2(N3CCCCC3)CCCCC2)cc1	inactive
CCN(CC)CC(C)C(C)OC(=O)C(O)(c1ccccc1)c1ccccc1 (centres undefined)	inactive
COc1cc(SC)ccc1C(=O)NCC1(N(C)C)CCCCC1	inactive
CC(C)N1C(=O)CC2(CCN(CCOC(=O)C(O)(c3ccccc3)c3ccccc3)CC2)C1=O	inactive
Cc1ccccc1C(=O)NCC1(N2CCCCC2)CCCCC1	inactive
CN(C)C1CCCC1OC(=O)C(O)(c1ccccc1)c1ccccc1 (centres undefined)	inactive
CN(C)c1ccc(C(=O)NCC2(N(C)C)CCCCC2)cc1	inactive
COc1ccc(C(=O)NCC2(N(C)C)CCCCC2)cc1	inactive
Cc1cc(C(=O)NCC2(N3CCCCC3)CCCCC2)ccc1[N+](=O)[O-]	inactive
CCN1CCCC(OC(=O)C2(O)c3ccccc3C=Cc3ccccc32)C1 (centres undefined)	inactive
O=C(NCC1(N2CCCCC2)CCCCC1)c1cccc(Br)c1	inactive
C=CCN1CCN(CCOC(=O)C(O)(c2ccccc2)c2ccccc2)CC1	inactive
O=C(NCC1(N2CCCCC2)CCCCC1)c1cc(F)c(F)cc1Cl	inactive
